Assay results from US20180057595A1 (CELLDEX THERAPEUTICS, published 2018).

By UniProt entry, the sequences of proteins in these tests, tags left out. Chains listed by the source or under a name are the forms on record and can include a tag or linker. Residues count along the entry.
UniProt P08581, 25-1390: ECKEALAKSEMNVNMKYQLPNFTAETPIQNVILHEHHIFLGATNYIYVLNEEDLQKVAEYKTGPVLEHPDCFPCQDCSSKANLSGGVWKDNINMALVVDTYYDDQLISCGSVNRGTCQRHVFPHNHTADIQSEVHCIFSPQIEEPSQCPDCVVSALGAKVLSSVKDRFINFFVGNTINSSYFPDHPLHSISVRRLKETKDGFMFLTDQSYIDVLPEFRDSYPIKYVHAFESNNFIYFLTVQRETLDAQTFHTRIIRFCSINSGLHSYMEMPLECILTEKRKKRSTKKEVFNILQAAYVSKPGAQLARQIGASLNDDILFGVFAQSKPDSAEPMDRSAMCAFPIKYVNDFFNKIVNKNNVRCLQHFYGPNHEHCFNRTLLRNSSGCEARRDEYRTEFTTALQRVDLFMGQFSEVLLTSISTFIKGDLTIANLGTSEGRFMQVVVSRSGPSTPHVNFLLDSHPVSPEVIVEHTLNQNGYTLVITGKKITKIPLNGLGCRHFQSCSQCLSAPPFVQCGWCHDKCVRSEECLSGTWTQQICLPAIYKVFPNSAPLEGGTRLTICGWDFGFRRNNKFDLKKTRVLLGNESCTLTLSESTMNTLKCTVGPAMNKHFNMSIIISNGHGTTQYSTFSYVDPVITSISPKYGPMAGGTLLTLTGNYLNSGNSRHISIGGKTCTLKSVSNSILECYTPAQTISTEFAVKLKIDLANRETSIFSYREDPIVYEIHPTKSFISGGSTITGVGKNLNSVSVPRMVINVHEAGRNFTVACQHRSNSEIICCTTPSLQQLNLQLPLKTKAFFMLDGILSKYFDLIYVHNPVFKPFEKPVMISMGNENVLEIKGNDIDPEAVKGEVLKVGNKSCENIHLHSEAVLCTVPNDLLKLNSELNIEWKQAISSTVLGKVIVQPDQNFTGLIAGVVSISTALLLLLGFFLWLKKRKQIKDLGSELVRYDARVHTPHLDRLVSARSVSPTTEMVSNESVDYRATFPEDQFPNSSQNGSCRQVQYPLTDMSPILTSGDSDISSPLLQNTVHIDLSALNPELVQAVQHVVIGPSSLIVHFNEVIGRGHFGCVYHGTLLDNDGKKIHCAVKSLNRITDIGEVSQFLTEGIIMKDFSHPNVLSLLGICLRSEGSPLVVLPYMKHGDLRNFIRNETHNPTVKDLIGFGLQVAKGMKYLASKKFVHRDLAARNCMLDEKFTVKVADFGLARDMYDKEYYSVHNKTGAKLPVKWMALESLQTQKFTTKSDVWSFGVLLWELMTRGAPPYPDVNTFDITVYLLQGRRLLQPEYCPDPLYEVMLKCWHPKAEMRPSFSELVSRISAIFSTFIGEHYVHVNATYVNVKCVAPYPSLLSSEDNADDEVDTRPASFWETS
UniProt P08581, other isoform, or with tags, fused parts or gaps: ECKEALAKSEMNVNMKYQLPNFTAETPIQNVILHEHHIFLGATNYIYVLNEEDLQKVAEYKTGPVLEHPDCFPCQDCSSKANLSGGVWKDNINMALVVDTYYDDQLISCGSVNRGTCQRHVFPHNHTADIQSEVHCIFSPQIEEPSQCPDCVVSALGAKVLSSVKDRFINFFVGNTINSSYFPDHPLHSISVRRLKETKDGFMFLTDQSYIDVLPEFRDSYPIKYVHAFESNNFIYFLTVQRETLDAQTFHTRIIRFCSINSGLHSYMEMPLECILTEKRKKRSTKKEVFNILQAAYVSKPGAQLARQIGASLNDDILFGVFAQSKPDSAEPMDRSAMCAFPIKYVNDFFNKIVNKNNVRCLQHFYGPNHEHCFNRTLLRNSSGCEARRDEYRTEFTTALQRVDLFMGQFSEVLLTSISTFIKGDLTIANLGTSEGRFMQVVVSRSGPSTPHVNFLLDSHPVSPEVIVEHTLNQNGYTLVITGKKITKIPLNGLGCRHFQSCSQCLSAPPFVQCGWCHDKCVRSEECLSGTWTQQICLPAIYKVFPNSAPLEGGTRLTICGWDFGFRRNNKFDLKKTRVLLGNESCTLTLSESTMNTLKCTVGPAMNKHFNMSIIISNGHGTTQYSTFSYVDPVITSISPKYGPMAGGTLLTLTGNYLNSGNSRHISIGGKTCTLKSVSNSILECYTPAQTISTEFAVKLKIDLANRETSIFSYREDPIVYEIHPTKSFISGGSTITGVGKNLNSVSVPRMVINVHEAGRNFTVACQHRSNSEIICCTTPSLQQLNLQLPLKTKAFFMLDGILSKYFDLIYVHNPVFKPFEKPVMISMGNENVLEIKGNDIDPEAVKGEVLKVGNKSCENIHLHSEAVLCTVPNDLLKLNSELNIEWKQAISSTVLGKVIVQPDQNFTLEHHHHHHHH

Assays:
[1] = biological target: T1, human MET, cell-surface expressed (human, UniProt P08581 25-1390); assay: FACS competition on A549 cells; competitor Ab237C
T1 construct: whole, on cells; Used for all assays on cells that carry wild-type human MET; the cell line is named under assay or readout; also called c-Met; hMET
Protocol: The binding of anti-MET antibodies to cell surface MET was analyzed by competition FACS analysis using A549 NSCLC cells (ATCC cat. no. CCL-185). […] A total of 3×10⁵ A549 NSCLC cells were added per dilution of antibody and incubated on ice for 1 hour. Cells were washed and a 1:100 dilution of PE-labeled goat anti-rat IgG antibody (BioLegend cat. no. 405406) in FACS buffer was added before incubation on ice for 1 hour. […] The geometric mean fluorescence intensity was plotted against antibody concentration. The IC₅₀ of each of the test antibodies was calculated relative to the IC₅₀ of the reference antibody.

[2] = biological target: T2, human MET-ECD with a His tag (MET-ECD-His) (human, UniProt P08581 25-932); assay: competition ELISA on immobilised MET-ECD; competitor Ab237C
T2 construct: The ELISA sections speak of MET-ECD, MET-ECD-His or His-tagged MET extracellular domain; also called hu-MET-ECD; human cMET ECD

[3] = biological target: T1, human MET, cell-surface expressed; assay: cell-based or functional assay

B1: Ab248 (antibody, human IgG1, V domains shown)
VH: EVQLVESGGGLVQPGGSLKLSCAASGFTFSDSYMAWVRQAPGKGLEWVASISSDGGGTYYRDSVKGRFTISRDNAKSSLYLQMNSLRTEDTATYYCTTEGIYTTDYYPYCFNYWGQGVMVTVSS
VL: DIQMTQSPSSLSASVGDRVTITCLASADIHSNLAWYQQKPGKAPKLLIYYGNNLNDGVPSRFSGSGSGTDYTLTISSLQPEDVAIYFCQQSYDSPPTFGQGTKLEIKR
notes: Composite human (humanized) antibody, human IgG1, kappa
relative IC50 (against Ab237C) [1]: ~1.17 relative to IC50 of Ab237C | IC50 relative to the IC50 of Ab237C [2]: ~1.04 relative to IC50 of Ab237C

B2: Ab242 (antibody, human IgG1, V domains shown)
VH: EVQLVESGGGLVQPGGSLKLSCAASGFTFSDSYMAWVRQAPGKGLEWVASISSDGGGTYYRDSVKGRFTISRDNAKSSLYLQMDSLRTEDTATYYCTTEGIYTTDYYPYCFNYWGQGVMVTVSS
VL: DIQMTQSPSSLSASVGDRVTITCLASADIHSNLAWYQQKPGKAPKLLIYYGNNLNDGVPSRFSGFGFGTDYTLTISSLQSEDVAIYFCQQSYDSPPTFGQGTKLEIKR
notes: as for B1
relative IC50 (against Ab237C) [1]: ~1.03 relative to IC50 of Ab237C | IC50 relative to the IC50 of Ab237C [2]: ~0.82 relative to IC50 of Ab237C

B3: Ab243 (antibody, human IgG1, V domains shown)
VH: EVQLVESGGGLVQPGGSLKLSCAASGFTFSDSYMAWVRQAPGKGLEWVASISSDGGGTYYRDSVKGRFTISRDNAKSSLYLQMDSLRTEDTATYYCTTEGIYTTDYYPYCFNYWGQGVMVTVSS
VL: DIQMTQSPSSLSASVGDRVTITCLASADIHSNLAWYQQKPGKAPKLLIYYGNNLNDGVPSRFSGSGSGTDYTLTISSLQPEDVAIYFCQQSYDSPPTFGQGTKLEIKR
notes: as for B1
relative IC50 (against Ab237C) [1]: ~1.07 relative to IC50 of Ab237C | IC50 relative to the IC50 of Ab237C [2]: ~0.92 relative to IC50 of Ab237C

B4: Ab244 (antibody, human IgG1, V domains shown)
VH: EVQLVESGGGLVQPGGSLKLSCAASGFTFSDSYMAWVRQAPGKGLEWVASISSDGGGTYYRDSVKGRFTISRDNAKSSLYLQMDSLRTEDTATYYCTTEGIYTTDYYPYCFNYWGQGVMVTVSS
VL: DIQMTQSPSSLSASVGDRVTITCLASADIHSNLAWYQQKPGKAPKLLIYYGNNLNDGVPSRFSGSGSGTDFTLTISSLQPEDVAIYFCQQSYDSPPTFGQGTKLEIKR
notes: as for B1
relative IC50 (against Ab237C), HGF-induced MET phosphorylation, ELISA [3]: ~0.44 relative to IC50 of Ab237C | relative IC50 (against Ab237C) [1]: ~0.93 relative to IC50 of Ab237C | IC50 relative to the IC50 of Ab237C [2]: ~1.07 relative to IC50 of Ab237C

B5: Ab245 (antibody, human IgG1, V domains shown)
VH: EVQLVESGGGLVQPGGSLKLSCAASGFTFSDSYMAWVRQAPGKGLEWVASISSDGGGTYYRDSVKGRFTISRDNAKSSLYLQMDSLRTEDTATYYCTTEGIYTTDYYPYCFNYWGQGVMVTVSS
VL: DIQMTQSPSSLSASVGDRVTITCLASADIHSNLAWYQQKPGKAPKLLIYYGNNLNDGVPSRFSGSGSGTDFTLTISSLQPEDVATYFCQQSYDSPPTFGQGTKLEIKR
notes: as for B1
relative IC50 (against Ab237C), HGF-induced MET phosphorylation, ELISA [3]: ~0.23 relative to IC50 of Ab237C | relative IC50 (against Ab237C) [1]: ~0.86 relative to IC50 of Ab237C | IC50 relative to the IC50 of Ab237C [2]: ~1.09 relative to IC50 of Ab237C

B6: Ab246 (antibody, human IgG1, V domains shown)
VH: EVQLVESGGGLVQPGGSLKLSCAASGFTFSDSYMAWVRQAPGKGLEWVASISSDGGGTYYRDSVKGRFTISRDNAKSSLYLQMNSLRTEDTATYYCTTEGIYTTDYYPYCFNYWGQGVMVTVSS
VL: DIQMTQSPSSLSASVGDRVTITCLASADIHSNLAWYQQKPGKAPQLLIYYGNNLNDGVPSRFSGSGSGTDYTLKINSLQSEDVAIYFCQQSYDSPPTFGQGTKLEIKR
notes: as for B1
relative IC50 (against Ab237C) [1]: ~1.15 relative to IC50 of Ab237C | IC50 relative to the IC50 of Ab237C [2]: ~0.81 relative to IC50 of Ab237C

B7: Ab247 (antibody, human IgG1, V domains shown)
VH: EVQLVESGGGLVQPGGSLKLSCAASGFTFSDSYMAWVRQAPGKGLEWVASISSDGGGTYYRDSVKGRFTISRDNAKSSLYLQMNSLRTEDTATYYCTTEGIYTTDYYPYCFNYWGQGVMVTVSS
VL: DIQMTQSPSSLSASVGDRVTITCLASADIHSNLAWYQQKPGKAPKLLIYYGNNLNDGVPSRFSGFGFGTDYTLTISSLQSEDVAIYFCQQSYDSPPTFGQGTKLEIKR
notes: as for B1
relative IC50 (against Ab237C) [1]: ~1.01 relative to IC50 of Ab237C | IC50 relative to the IC50 of Ab237C [2]: ~0.82 relative to IC50 of Ab237C

B8: Ab249 (antibody, human IgG1, V domains shown)
VH: EVQLVESGGGLVQPGGSLKLSCAASGFTFSDSYMAWVRQAPGKGLEWVASISSDGGGTYYRDSVKGRFTISRDNAKSSLYLQMNSLRTEDTATYYCTTEGIYTTDYYPYCFNYWGQGVMVTVSS
VL: DIQMTQSPSSLSASVGDRVTITCLASADIHSNLAWYQQKPGKAPKLLIYYGNNLNDGVPSRFSGSGSGTDFTLTISSLQPEDVAIYFCQQSYDSPPTFGQGTKLEIKR
notes: as for B1
relative IC50 (against Ab237C), HGF-induced MET phosphorylation, ELISA [3]: ~0.47 relative to IC50 of Ab237C | relative IC50 (against Ab237C) [1]: ~0.7 relative to IC50 of Ab237C | IC50 relative to the IC50 of Ab237C [2]: ~1 relative to IC50 of Ab237C

B9: Ab250 (antibody, human IgG1, V domains shown)
VH: EVQLVESGGGLVQPGGSLKLSCAASGFTFSDSYMAWVRQAPGKGLEWVASISSDGGGTYYRDSVKGRFTISRDNAKSSLYLQMNSLRTEDTATYYCTTEGIYTTDYYPYCFNYWGQGVMVTVSS
VL: DIQMTQSPSSLSASVGDRVTITCLASADIHSNLAWYQQKPGKAPKLLIYYGNNLNDGVPSRFSGSGSGTDFTLTISSLQPEDVATYFCQQSYDSPPTFGQGTKLEIKR
notes: as for B1
relative IC50 (against Ab237C), HGF-induced MET phosphorylation, ELISA [3]: ~0.21 relative to IC50 of Ab237C | relative IC50 (against Ab237C) [1]: ~0.86 relative to IC50 of Ab237C | IC50 relative to the IC50 of Ab237C [2]: ~1.13 relative to IC50 of Ab237C

B10: Ab251 (antibody, human IgG1, V domains shown)
VH: EVQLVESGGGLVQPGGSLKLSCAASGFTFSDSYMAWVRQAPGKGLEWVASISSDGGGTYYRDSVKGRFTISRDNAKNSLYLQMNSLRTEDTATYYCTTEGIYTTDYYPYCFNYWGQGTMVTVSS
VL: DIQMTQSPSSLSASVGDRVTITCLASADIHSNLAWYQQKPGKAPQLLIYYGNNLNDGVPSRFSGSGSGTDYTLKINSLQSEDVAIYFCQQSYDSPPTFGQGTKLEIKR
notes: as for B1
relative IC50 (against Ab237C) [1]: ~0.99 relative to IC50 of Ab237C | IC50 relative to the IC50 of Ab237C [2]: ~0.98 relative to IC50 of Ab237C

B11: Ab252 (antibody, human IgG1, V domains shown)
VH: EVQLVESGGGLVQPGGSLKLSCAASGFTFSDSYMAWVRQAPGKGLEWVASISSDGGGTYYRDSVKGRFTISRDNAKNSLYLQMNSLRTEDTATYYCTTEGIYTTDYYPYCFNYWGQGTMVTVSS
VL: DIQMTQSPSSLSASVGDRVTITCLASADIHSNLAWYQQKPGKAPKLLIYYGNNLNDGVPSRFSGFGFGTDYTLTISSLQSEDVAIYFCQQSYDSPPTFGQGTKLEIKR
notes: as for B1
relative IC50 (against Ab237C) [1]: ~1.06 relative to IC50 of Ab237C | IC50 relative to the IC50 of Ab237C [2]: ~0.99 relative to IC50 of Ab237C

B12: Ab253 (antibody, human IgG1, V domains shown)
VH: EVQLVESGGGLVQPGGSLKLSCAASGFTFSDSYMAWVRQAPGKGLEWVASISSDGGGTYYRDSVKGRFTISRDNAKNSLYLQMNSLRTEDTATYYCTTEGIYTTDYYPYCFNYWGQGTMVTVSS
VL: DIQMTQSPSSLSASVGDRVTITCLASADIHSNLAWYQQKPGKAPKLLIYYGNNLNDGVPSRFSGSGSGTDYTLTISSLQPEDVAIYFCQQSYDSPPTFGQGTKLEIKR
notes: as for B1
relative IC50 (against Ab237C) [1]: ~0.91 relative to IC50 of Ab237C | IC50 relative to the IC50 of Ab237C [2]: ~0.94 relative to IC50 of Ab237C

B13: Ab254 (antibody, human IgG1, V domains shown)
VH: EVQLVESGGGLVQPGGSLKLSCAASGFTFSDSYMAWVRQAPGKGLEWVASISSDGGGTYYRDSVKGRFTISRDNAKNSLYLQMNSLRTEDTATYYCTTEGIYTTDYYPYCFNYWGQGTMVTVSS
VL: DIQMTQSPSSLSASVGDRVTITCLASADIHSNLAWYQQKPGKAPKLLIYYGNNLNDGVPSRFSGSGSGTDFTLTISSLQPEDVAIYFCQQSYDSPPTFGQGTKLEIKR
notes: as for B1
relative IC50 (against Ab237C), HGF-induced MET phosphorylation, ELISA [3]: ~0.23 relative to IC50 of Ab237C | relative IC50 (against Ab237C) [1]: ~0.78 relative to IC50 of Ab237C | IC50 relative to the IC50 of Ab237C [2]: ~0.8 relative to IC50 of Ab237C

B14: Ab255 (antibody, human IgG1, V domains shown)
VH: EVQLVESGGGLVQPGGSLKLSCAASGFTFSDSYMAWVRQAPGKGLEWVASISSDGGGTYYRDSVKGRFTISRDNAKNSLYLQMNSLRTEDTATYYCTTEGIYTTDYYPYCFNYWGQGTMVTVSS
VL: DIQMTQSPSSLSASVGDRVTITCLASADIHSNLAWYQQKPGKAPKLLIYYGNNLNDGVPSRFSGSGSGTDFTLTISSLQPEDVATYFCQQSYDSPPTFGQGTKLEIKR
notes: as for B1
relative IC50 (against Ab237C), HGF-induced MET phosphorylation, ELISA [3]: ~0.25 relative to IC50 of Ab237C | relative IC50 (against Ab237C) [1]: ~0.72 relative to IC50 of Ab237C | IC50 relative to the IC50 of Ab237C [2]: ~0.9 relative to IC50 of Ab237C

B15: Ab235C (antibody, human IgG1, V domains shown)
VH: QVQLQQSGAELMKPGASVKISCKATGYTFSNYWIEWVKQRPGHGLEWIGEILPGSDYTKYNEKFKGKATFTADTSSNTAYMQLSSLTSEDSAVYYCARPSTIPPDCWGQGTTLTVSA
VL: QIVLTQSPAIMSTSPGEKVTMTCSASSSVNYMFWYQQKAGSSPRLLIYDTFNLASGVPVRFSGSGSGTSYSLTISRMEAEDAATYYCQQWSIYPYTFGGGTKLEIKR
IC50, MET Tyr1234/Tyr1235 phosphorylation, ELISA, U87MG cells [3]: ~71 pM
